Measured values as given in publication PMC6155021, “Ancient and modern anticonvulsants act synergistically in a KCNQ potassium channel binding pocket” (Nature Communications, 2018).

Chains of the proteins cited; added tags and fusions are not shown.
UniProt Q09470, whole entry: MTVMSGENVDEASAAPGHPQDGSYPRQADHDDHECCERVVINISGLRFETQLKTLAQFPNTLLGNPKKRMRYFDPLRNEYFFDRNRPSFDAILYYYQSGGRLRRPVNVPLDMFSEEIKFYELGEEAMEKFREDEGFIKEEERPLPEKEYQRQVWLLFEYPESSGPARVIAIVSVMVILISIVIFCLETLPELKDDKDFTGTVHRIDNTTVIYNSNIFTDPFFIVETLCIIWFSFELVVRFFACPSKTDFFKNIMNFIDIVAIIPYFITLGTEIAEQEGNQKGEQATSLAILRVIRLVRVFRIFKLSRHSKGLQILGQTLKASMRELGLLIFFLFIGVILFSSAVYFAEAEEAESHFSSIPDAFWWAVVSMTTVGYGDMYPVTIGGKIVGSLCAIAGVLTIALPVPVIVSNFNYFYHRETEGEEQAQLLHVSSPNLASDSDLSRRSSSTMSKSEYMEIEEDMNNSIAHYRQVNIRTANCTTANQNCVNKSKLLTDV

Key:
Format in all cases: cell-based
[1] = molecular target: KCNQ2-W236L/KCNQ3-W265L channels (Homo sapiens, UniProt O43525+O43526, W236L/W265L); assay: Two-electrode voltage-clamp of W236L-Q2/W265L-Q3 mutant channels in Xenopus oocytes; settings: for Non-normalized tail current V0.5 / Normalized tail current V0.5 / Slope: W236L-Q2/W265L-Q3
Excerpt: (§1) cRNA transcripts encoding human KCNA1, KCNQ1, KCNQ2, KCNQ3, KCNQ4, or KCNQ5 were generated by in vitro transcription using the T7 polymerase message machine kit (Thermo Fisher Scientific), after vector linearization, from cDNA sub-cloned into plasmids incorporating X. laevis β-globin 5′ and 3′ UTRs flanking the coding region to enhance translation and cRNA stability. cRNA was quantified by spectrophotometry. Mutant cDNAs were generated by site-directed mutagenesis using a QuikChange kit according to manufacturer’s protocol (Stratagene, San Diego, CA) and corresponding cRNAs prepared as above. Defolliculated stage V and VI X. laevis oocytes (Ecocyte Bioscience, Austin, TX) were injected with Kv channel α subunit cRNAs (10 ng total per oocyte). Oocytes were incubated at 16 °C in Barth’s saline solution (Ecocyte) containing penicillin and streptomycin, with daily washing, for 3–5 days prior to two-electrode voltage-clamp (TEVC) recording.
(§2) Oocytes were placed in a small-volume oocyte bath (Warner) and viewed with a dissection microscope. Chemicals were sourced from Sigma. Bath solution was (in mM): 96 NaCl, 4 KCl, 1 MgCl2, 1 CaCl2, 10 HEPES (pH 7.6). […] MTX (DMSO), sorbic acid (ethanol), and glutaconic acid (molecular grade H2O) were stored at −20 °C as 1 M stocks. Oleamide was stored as a 1 mM stock in ethanol at 4 °C. Palmitic acid was conjugated with bovine serum albumin as a 1 mM stock and stored at −20 °C. All compounds were diluted to working concentrations each experimental day. All compounds were introduced to the recording bath via gravity perfusion at a constant flow of 1 ml/min for 3 min prior to recording. Pipettes were of 1–2 MΩ resistance when filled with 3 M KCl. Currents were recorded in response to pulses between −80 and +40 mV at 20 mV intervals, or a single pulse to +40 mV, from a holding potential of −80 mV, to yield current–voltage relationships, current magnitude, and for quantifying activation rate. TEVC data analysis was performed with Clampfit10.2 (Molecular Devices) and Graphpad Prism software (GraphPad, San Diego, CA, USA); values are stated as mean ± SEM. Normalized tail currents were plotted versus prepulse voltage and fitted with a single Boltzmann function:1 g=A1-A2/1+expV12-Vy+A2, where g is the normalized tail conductance, A1 is the initial value at −∞, A2 is the final value at +∞, V1/2 is the half-maximal voltage of activation, and Vs the slope factor. Activation and deactivation kinetics were fitted with single-exponential functions.

[2] = molecular target: KCNQ2 (Homo sapiens, UniProt O43526); assay: Two-electrode voltage-clamp of homomeric KCNQ2 in Xenopus oocytes
Excerpt: as §1, §2

[3] = molecular target: KCNA1 (Homo sapiens, UniProt Q09470); assay: Two-electrode voltage-clamp of KCNA1 in Xenopus oocytes; settings: KCNA1 (table title); 500 µM
Excerpt: as §1
Oocytes were placed in a small-volume oocyte bath (Warner) and viewed with a dissection microscope. Chemicals were sourced from Sigma. […] Currents were recorded in response to pulses between −80 and +40 mV at 20 mV intervals, or a single pulse to +40 mV, from a holding potential of −80 mV, to yield current–voltage relationships, current magnitude, and for quantifying activation rate. […]

[4] = molecular target: KCNQ4 (Homo sapiens, UniProt P56696); assay: cell-based; settings: for Non-normalized tail current V0.5 / Normalized tail current V0.5 / Slope: KCNQ4
Excerpt: as §1, §2

[5] = molecular target: KCNQ3* (KCNQ3-A315T) (Homo sapiens, UniProt O43525, A315T); assay: cell-based; settings: for Non-normalized tail current V0.5 / Normalized tail current V0.5: KCNQ3*
Excerpt: as §1, §2

[6] = molecular target: KCNQ5 (Homo sapiens, UniProt Q9NR82); assay: cell-based; settings: for Non-normalized tail current V0.5 / Normalized tail current V0.5 / Slope: KCNQ5
Excerpt: as §1, §2

[7] = molecular target: KCNQ2/3 channels (Homo sapiens, UniProt O43525+O43526); assay: Two-electrode voltage-clamp of KCNQ2/3 channels expressed in Xenopus laevis oocytes
Excerpt: as §1, §2

## CC(C)CC(=O)O [IVA, isovaleric acid]
[1]; 1 µM
  Non-normalized tail current V0.5: -55.8 ± 7.5 mV
  Normalized tail current V0.5: -57.6 ± 1.1 mV
  Slope: 6.3 ± 1.4 mV
[1]; 10 µM
  Non-normalized tail current V0.5: -53.7 ± 7.4 mV
  Normalized tail current V0.5: -55.7 ± 1.7 mV
  Slope: 4.9 ± 1.6 mV
[1]; 100 µM
  Non-normalized tail current V0.5: -53.7 ± 7.7 mV
  Normalized tail current V0.5: -56.5 ± 2.0 mV
  Slope: 4.7 ± 2.4 mV
[1]; 500 µM
  Non-normalized tail current V0.5: -51.1 ± 6.1 mV
  Normalized tail current V0.5: -54.6 ± 1.8 mV
  Slope: 5.6 ± 1.4 mV
[1]; 5 mM
  Non-normalized tail current V0.5: -51.9 ± 8.4 mV
  Normalized tail current V0.5: -56.3 ± 3.7 mV
  Slope: 3.5 ± 3.5 mV
[1]; at any concentration
  KCNQ2/3-W236L/W265L current at −60 mV: did not increase
[2]
  EC50: 340 nM
[2]; KCNQ2, 0.1 µM
  Non-normalized tail current V0.5: -45.9 ± 3.1 mV
  Normalized tail current V0.5: -46.6 ± 0.9 mV
  Slope: 5.5 ± 0.9 mV
[2]; KCNQ2, 1 µM
  Non-normalized tail current V0.5: -49.3 ± 6.9 mV
  Normalized tail current V0.5: -48.5 ± 1.3 mV
  Slope: 7.0 ± 0.8 mV
[2]; KCNQ2, 10 µM
  Non-normalized tail current V0.5: -50.7 ± 6.5 mV
  Normalized tail current V0.5: -50.1 ± 1.2 mV
  Slope: 6.9 ± 0.8 mV
[2]; KCNQ2, 100 µM
  Non-normalized tail current V0.5: -52.2 ± 5.6 mV
  Normalized tail current V0.5: -52.6 ± 1.8 mV
  Slope: 7.8 ± 1.8 mV
[2]; KCNQ2, 500 µM
  Non-normalized tail current V0.5: -50.4 ± 2.1 mV
  Normalized tail current V0.5: -50.4 ± 1.5 mV
  Slope: 6.6 ± 0.9 mV
[2]; KCNQ2, 5 mM
  Non-normalized tail current V0.5: -49.5 ± 1.4 mV
  Normalized tail current V0.5: -49.9 ± 1.4 mV
  Slope: 6.3 ± 0.8 mV
[2]; KCNQ2, IVA, concentration not given
  shift of activation V0.5: –9 mV
[3]
  Non-normalized tail current V0.5: -37.8 ± 3.2 mV
  Normalized tail current V0.5: -38.9 ± 1.1 mV
[4]
  EC50: 16.2 µM
[4]; 1 µM
  Non-normalized tail current V0.5: -6.7 ± 9.1 mV
  Normalized tail current V0.5: -6.2 ± 1.4 mV
  Slope: 14.6 ± 1.4 mV
[4]; 10 µM
  Non-normalized tail current V0.5: -9.1 ± 10.4 mV
  Normalized tail current V0.5: -7.2 ± 1.6 mV
  Slope: 16.2 ± 1.5 mV
[4]; 100 µM
  Non-normalized tail current V0.5: -10.2 ± 11.1 mV
  Normalized tail current V0.5: -7.5 ± 1.8 mV
  Slope: 15.3 ± 1.8 mV
[4]; 500 µM
  Non-normalized tail current V0.5: -7.8 ± 11.9 mV
  Normalized tail current V0.5: -7.5 ± 5.7 mV
  Slope: 16.2 ± 1.6 mV
[4]; 5 mM
  Non-normalized tail current V0.5: -9.3 ± 12.1 mV
  Normalized tail current V0.5: -6.1 ± 2.1 mV
  Slope: 15.6 ± 1.9 mV
[5]
  EC50: 500 nM
[5]; 1 µM
  Non-normalized tail current V0.5: -53.9 ± 1.3 mV
  Normalized tail current V0.5: -53.1 ± 2.1 mV
[5]; 10 µM
  Non-normalized tail current V0.5: -55.6 ± 1.5 mV
  Normalized tail current V0.5: -55.8 ± 2.2 mV
[5]; 100 µM
  Non-normalized tail current V0.5: -54.8 ± 0.9 mV
  Normalized tail current V0.5: -53.9 ± 2.2 mV
[5]; 500 µM
  Non-normalized tail current V0.5: -53.3 ±1.7 mV
  Normalized tail current V0.5: -52.6 ± 2.1 mV
[5]; 5 mM
  Non-normalized tail current V0.5: -51.7 ± 1.5 mV
  Normalized tail current V0.5: -51.0 ± 2.3 mV
[6]
  EC50: 1.939 ± 0.0047 mM
[6]; 1 µM
  Non-normalized tail current V0.5: -41.5 ± 1.9 mV
  Normalized tail current V0.5: -42.4 ± 1.7 mV
  Slope: 6.8 ± 2.1 mV
[6]; 10 µM
  Non-normalized tail current V0.5: -41.8 ± 1.6 mV
  Normalized tail current V0.5: -43.8 ± 1.7 mV
  Slope: 6.9 ± 1.7 mV
[6]; 100 µM
  Non-normalized tail current V0.5: -41.6 ± 2.1 mV
  Normalized tail current V0.5: -43.4 ± 1.4 mV
  Slope: 6.7 ± 1.5 mV
[6]; 500 µM
  Non-normalized tail current V0.5: -42.9 ± 2.7 mV
  Normalized tail current V0.5: -44.6 ± 1.8 mV
  Slope: 6.9 ± 1.6 mV
[6]; 5 mM
  Non-normalized tail current V0.5: -44.6 ± 3.2 mV
  Normalized tail current V0.5: -46.3 ± 2.1 mV
  Slope: 7.3 ± 1.6 mV
[7]
  KCNQ2/3 current increase at −60 mV: ~ fivefold
[7]; 100 µM, tail currents at −30 mV
  effect on voltage dependence of KCNQ2/3 activation (initial screen): negative-shifted
[7]; EC50, KCNQ2/3, current at −60 mV, calculated from dose responses
  EC50: 228 ± 0.4 µM
[7]; KCNQ2/3, 1 µM
  Non-normalized tail current V0.5: -43.6 ± 5.1 mV
  Normalized tail current V0.5: -43.8 ± 1.9 mV
  Slope: 5.7 ± 2.1 mV
  τ act, -40 mV: 494 ± 48 ms
  τ deact, -80 mV: 159 ± 12 ms
[7]; KCNQ2/3, 10 µM
  Non-normalized tail current V0.5: -44.2 ± 4.8 mV
  Normalized tail current V0.5: -45.1 ± 2.2 mV
  Slope: 5.4 ± 1.8 mV
  τ act, -40 mV: 474 ± 37 ms
  τ deact, -80 mV: 170 ± 6 ms
[7]; KCNQ2/3, 100 µM
  Non-normalized tail current V0.5: -45.4 ± 4.7 mV
  Normalized tail current V0.5: -46.8 ± 1.8 mV
  Slope: 5.4 ± 1.1 mV
  τ act, -40 mV: 442 ± 22 ms
  τ deact, -80 mV: 192 ± 14 ms
[7]; KCNQ2/3, 500 µM
  Non-normalized tail current V0.5: -48.7 ± 5.2 mV
  Normalized tail current V0.5: -50.1 ± 2.4 mV
  Slope: 5.6 ± 1.2 mV
  τ act, -40 mV: 406 ± 18 ms
  τ deact, -80 mV: 219 ± 21 ms
[7]; KCNQ2/3, 5 mM
  Non-normalized tail current V0.5: -50.1 ± 5.2 mV
  Normalized tail current V0.5: -51.2 ± 2.1 mV
  Slope: 5.4 ± 1.1 mV
  τ act, -40 mV: 414 ± 23 ms
  τ deact, -80 mV: 241 ± 22 ms
[7]; KCNQ2/3, IVA, concentration not given
  shift of activation V0.5: −11 mV
